Measured values taken from patent US5902583A, “Genetic induction of receptors for targeted radiotherapy” (priority 1997, dated 1999).

By UniProt entry, the sequences of proteins in these tests, tags left out. Where a name states a change or a piece, a line headed by the entry shows the natural chain unless it says otherwise.
UniProt P21729: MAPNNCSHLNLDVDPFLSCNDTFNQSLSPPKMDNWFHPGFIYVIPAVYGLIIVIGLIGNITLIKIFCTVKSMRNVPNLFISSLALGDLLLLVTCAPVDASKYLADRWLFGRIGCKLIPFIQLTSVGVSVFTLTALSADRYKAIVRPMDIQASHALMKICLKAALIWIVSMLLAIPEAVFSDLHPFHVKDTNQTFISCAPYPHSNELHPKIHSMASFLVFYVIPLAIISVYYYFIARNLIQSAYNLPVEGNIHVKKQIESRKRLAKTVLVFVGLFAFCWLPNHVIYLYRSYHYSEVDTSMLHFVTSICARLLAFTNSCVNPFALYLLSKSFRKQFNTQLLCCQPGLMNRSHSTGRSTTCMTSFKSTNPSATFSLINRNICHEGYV

Biological target: T1, murine gastrin releasing peptide receptor (mGRPr) (Mus musculus, UniProt P21729)
T1 construct: expressed in transfected cells; host or cells: human carcinoma lines A427, D54MG, U251MG, LS174T, WiDr, OVCAR-3, OV-4, SKOV3.ip1 infected with AdCMVGRPr; positive control: mouse fibroblast line BNR-11 stably expressing mGRPr
Assay: Live-cell binding of radiolabeled bombesin after AdCMVGRPr infection of human carcinoma cell lines
Procedure: Infections with recombinant adenoviruses were performed as previously described. Cells were harvested for radiolabeled binding assay 48 hours following adenoviral mediated infection by removal at 37° C. with 4 mM EDTA, 0.05% KCl. Detached cells were washed once with 0.1% BSA/PBS pH 7.2, enumerated and resuspended at 1×10^7 per ml. Each set of cells was aliquoted into 100 μl samples in duplicate polystyrene test tubes following the addition of 100,000 cpm (100 μl) of [^125 I]-Tyr-bombesin (DuPont NEN Research Products, Boston, Mass.). […] The solutions were mixed at room temperature for 1 hour, rinsed with PBE and centrifuged at 1700×g for 10 min. The supernatant was removed and the cells were counted in a gamma counter to determine the amount of bound radioactivity. Radioactivity bound was then plotted as the percent cpm bound to the cells versus the total amount of cpm added. The human ovarian carcinoma cell line SKOV3.ip1 expresses the cell surface receptor for erbB-2. Therefore, a non-internalizing monoclonal antibody (e21) against a cell surface epitope of erbB-2 was employed (provided by C. Richter King, Oncologix, Inc., Gaithersburg, Md.). The e21 antibody was ^125 I-labeled using the lodogen method and utilized in an in vitro live-cell binding assay with the SKOV3.ip1 cells. Cells were harvested as described above and incubated for 1 hour with 100 μl of a 2 μg/ml solution of ^125 I-labeled e21 antibody. Cells were washed and bound radioactivity determined as described above.
The obtained virus was structurally verified through polymerase chain reaction and restriction endonuclease digestion analysis (data not shown). Functional validation of the virus was performed through in vitro gene delivery methods. Human lung, colon and ovarian carcinoma cell lines, along with human glioma cell lines, were infected with 10 or 100 pfu/cell of AdCMVGRPr, or 100 pfu/cell of a control virus, AdCMVLacZ.

“[^125 I]-Tyr4 -bombesin [[^125 I]-Tyr-bombesin]” was tested, and the “added radioactivity bound to the cells” value (A427, D54MG and U251MG, 10 or 100 pfu/cell AdCMVGRPr) was 64.6-77.2%, the added radioactivity bound (LS174T and WiDr, 10 pfu/cell AdCMVGRPr) was “approximately 30%” and the “binding of the radiolabeled bombesin peptide” value (LS174T and WiDr, 100 pfu/cell AdCMVGRPr) was 60%. The added radioactivity bound (OV-4, 10 pfu/cell AdCMVGRPr) was 20%, the added radioactivity bound (OV-4, moi 100 AdCMVGRPr) was 59.7% and the added radioactivity bound (OVCAR-3, 10 pfu/cell AdCMVGRPr) was 52.1%. For the same substance, the added radioactivity bound (OVCAR-3, 100 pfu/cell AdCMVGRPr) was 80.9%, the added radioactivity bound (OVCAR-3, uninfected) was 32% and the added radioactivity bound (SKOV3.ip1, 10 pfu/cell AdCMVGRPr) was 18.4%. The added radioactivity bound (SKOV3.ip1, moi 100 AdCMVGRPr) was 70.6% and the “binding of the radiolabeled peptide” value (human glioma cell lines, AdCMVLacZ) was 3-8%.
